Results as given in patent US20150065524A1, “KINASE INHIBITOR POLYMORPHS” (Intellikine LLC, priority 2011, published 2015).

Assay: Stability testing: storage at 40° C./75% RH or 25° C./97% RH, reanalysis by XRPD
Type: physicochemical
Details: salts of Formula I, salt screening
Protocol: A sample of J00439 was stored at 40° C./75% RH. […] Thus this solid form (which will be referred to as Form A) was stable to accelerated stability testing conditions. Note that some variations in XRPD peak intensity were observed over time.
Samples of entries 38, 39, 41, and 42 were stored at 40° C./75% RH. […]

## Phosphoric acid
  Stability at 40° C./75% RH: Stable for 7 days
